Only a part is listed here, and it is no random draw. Some results for these compounds are left out of this collection, so the calls shown say nothing about other tests. Active and inactive are the calls of the source.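 Rule for the calls: active = inhibition above 20% in each of the two 10-compound mixture wells holding the compound; inactive = the rest.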

Sequences of proteins named here, by UniProt entry; tags and fusion partners are left off. Residues count along the entry.
UniProt P09871, 16-437 limits assumed: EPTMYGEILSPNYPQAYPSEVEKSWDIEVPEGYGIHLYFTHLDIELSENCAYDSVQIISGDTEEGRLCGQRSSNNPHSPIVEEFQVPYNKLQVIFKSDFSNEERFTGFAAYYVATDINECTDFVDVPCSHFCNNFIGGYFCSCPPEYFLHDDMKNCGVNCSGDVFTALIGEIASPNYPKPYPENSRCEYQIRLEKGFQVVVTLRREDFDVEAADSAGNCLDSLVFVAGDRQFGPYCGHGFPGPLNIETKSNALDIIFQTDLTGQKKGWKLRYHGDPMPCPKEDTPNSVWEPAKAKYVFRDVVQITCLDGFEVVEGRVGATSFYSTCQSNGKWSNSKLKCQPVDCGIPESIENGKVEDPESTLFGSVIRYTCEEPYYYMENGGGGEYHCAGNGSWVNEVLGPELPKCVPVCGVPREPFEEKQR
UniProt P09871, 438-688 limits assumed: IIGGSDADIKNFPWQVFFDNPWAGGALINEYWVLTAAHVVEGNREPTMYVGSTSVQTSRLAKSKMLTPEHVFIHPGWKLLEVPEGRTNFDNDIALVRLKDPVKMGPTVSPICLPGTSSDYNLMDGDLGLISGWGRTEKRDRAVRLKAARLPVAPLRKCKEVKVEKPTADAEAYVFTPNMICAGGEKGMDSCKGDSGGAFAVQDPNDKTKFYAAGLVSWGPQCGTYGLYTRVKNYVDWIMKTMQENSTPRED

In the assay the target is Complement C1s subcomponent (Homo sapiens) (UniProt P09871). The assay can be described thus: complement C1s protease inhibitors, primary screen, biochemical, 10-compound mixtures (AID 538).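 Note: 0% = enzyme wells lacking compound mixture and 100% = no-enzyme blank wells.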 The conditions noted are these: purified C1s, fluorogenic AMC substrate, pooled mixtures; screened at 5 µM (by protocol).
On to `CN(C)c1cccc(C(=O)NCC2(N(C)C)CCCCC2)c1`, for which the mean inhibition % of two 10-compound mixtures (stronger effect = higher value) is inactive: 12.4%. The figure for `O=C(OC1CN2CCC1CC2)C(CO)(c1ccccc1)c1ccccc1` (configuration not stated) is inactive: -14.6%.
